Among the data in ChEMBL document CHEMBL5385856, “Novel 1,4,5,6-tetrahydrocyclopenta[d]imidazole-5-carboxamide-based JNK3 inhibitors: Design, synthesis, molecular docking, and therapeutic potential in neurodegenerative diseases” (Eur J Med Chem, 2023) are Ratio IC50 values, retold here.

A short description of the experiment: Selectivity ratio of IC50 for inhibition of JNK2 (unknown origin) to IC50 for inhibition of JNK3 (unknown origin).

In the case of `NC(=O)C1Cc2nc(-c3ccc(Cl)c(Cl)c3)n(-c3ccnc(N[C@H]4CCCN(C(=O)C5CC5)C4)n3)c2C1` (stereo partly specified), the Ratio IC50 came out at 78.
